Source: publication PMC8234359, “Pharmacokinetics in Zebrafish Embryos (ZFE) Following Immersion and Intrayolk Administration: A Fluorescence-Based Analysis” (Pharmaceuticals, 2021)

Experiment: Intrayolk (IY) microinjection of two-cell stage zebrafish embryos (2 mg/kg), spatiotemporal fluorescence imaging and non-compartmental AUC
Format: in vivo, zebrafish (Danio rerio)
Text: Intrayolk microinjection (IY): zebrafish embryos at the two-cell stage were positioned in a Petri dish at room temperature. […] Needles were filled with compounds dissolved in the vehicle (DMSO/saline (1:1)), placed under the microscope, and using forceps, the tip was cut off in a manner to allow for a consistent volume to be injected. Afterwards, the embryos were transferred to 6-well plates. Control embryos were exposed to vehicle only. […] Previous to fluorescence imaging, the embryos were dechorionated (up to 72 hpf) and immobilized by hypothermia, rinsed three times with Danieau's medium, and positioned latero-lateral (right lateral recumbency) on a single cavity glass slide and covered by a drop of agarose (0.1%). Then, using MetaMorph (Microscopy Automation and Image Analysis Software V.7.8.00, Molecular Devices, LLC., San Jose, CA, USA) and by manual delineation of the whole-body (WB) (up to 120 h) and yolk sac contours (up to 72 h) of the zebrafish embryos the fluorescence in the selected area was quantified as integrated fluorescence intensity (RFU). The RFU values of the non-yolk compartment (i.e., RoB: rest of body) was assessed by subtracting the yolk results from the corresponding integrated fluorescence intensities found in the WB. […] The area under a plot of the fluorescence intensity (RFUT) versus time is referred to as the area under the (zero moment) curve AUC. […]

## Rhodamine 6g 6-Isomer [Compound R6GA]
IY microinjection 2 mg/kg, after 96 hpf
  accumulation in the gastrointestinal system: accumulation
Ratio of AUCRoB to AUCWB after microinjection into the yolk (2 mg/kg), 0.25–72 h
  RD (IY), Relative Distribution: 0.26
